Source: patent US20260125400A1, “TYK2 DEGRADERS AND USES THEREOF” (Kymera Therapeutics, Inc., priority 2023, published 2026)
Where two headings read alike, the source gives them in different places.

Protein sequences, listed by entry. Tags and fused reporters are not part of them.
UniProt P29597, whole entry: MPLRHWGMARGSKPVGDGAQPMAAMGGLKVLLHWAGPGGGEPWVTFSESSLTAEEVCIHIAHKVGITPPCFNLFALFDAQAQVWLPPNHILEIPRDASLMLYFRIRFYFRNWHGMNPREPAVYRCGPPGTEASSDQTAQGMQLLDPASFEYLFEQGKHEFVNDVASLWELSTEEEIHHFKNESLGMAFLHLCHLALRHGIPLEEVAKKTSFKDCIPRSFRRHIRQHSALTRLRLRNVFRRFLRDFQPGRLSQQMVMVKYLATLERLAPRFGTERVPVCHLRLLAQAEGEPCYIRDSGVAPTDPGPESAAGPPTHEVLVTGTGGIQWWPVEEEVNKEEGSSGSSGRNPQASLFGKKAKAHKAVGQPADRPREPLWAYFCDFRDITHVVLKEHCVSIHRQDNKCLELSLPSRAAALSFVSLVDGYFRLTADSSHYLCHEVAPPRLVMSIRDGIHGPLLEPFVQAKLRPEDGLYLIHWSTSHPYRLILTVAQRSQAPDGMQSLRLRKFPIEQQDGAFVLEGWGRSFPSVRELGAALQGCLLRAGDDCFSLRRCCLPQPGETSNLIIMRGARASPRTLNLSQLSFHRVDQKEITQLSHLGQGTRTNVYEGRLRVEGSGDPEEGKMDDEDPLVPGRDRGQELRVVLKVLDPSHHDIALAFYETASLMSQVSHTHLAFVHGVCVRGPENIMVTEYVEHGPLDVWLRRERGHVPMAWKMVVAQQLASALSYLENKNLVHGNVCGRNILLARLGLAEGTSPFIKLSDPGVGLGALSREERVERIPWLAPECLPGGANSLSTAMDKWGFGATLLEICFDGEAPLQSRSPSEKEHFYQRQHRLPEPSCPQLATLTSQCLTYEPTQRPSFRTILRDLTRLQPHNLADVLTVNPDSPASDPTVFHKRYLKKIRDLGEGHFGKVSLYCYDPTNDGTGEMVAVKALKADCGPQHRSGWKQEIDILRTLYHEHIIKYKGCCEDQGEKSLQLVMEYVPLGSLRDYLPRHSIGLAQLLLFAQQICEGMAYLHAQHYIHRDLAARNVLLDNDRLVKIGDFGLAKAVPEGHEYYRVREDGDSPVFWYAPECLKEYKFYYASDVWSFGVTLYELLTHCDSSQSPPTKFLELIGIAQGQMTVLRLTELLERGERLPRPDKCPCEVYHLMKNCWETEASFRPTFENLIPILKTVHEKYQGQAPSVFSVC

Biological target: TYK2 (Homo sapiens, UniProt P29597)
Assay: TYK2 MSD degradation in OCI-LY10 cells
Description: Example 7. TYK2 MSD Degradation
Degradation of TYK2 in cells was quantitatively measured using Meso Scale Discovery (MSD) technology. OCI-LY10 cells were seeded in 96-well plates with a density of 0.4 million cells per well in 100 μl fresh media. Compounds were then added to the assay plates with a final top concentration of 1 to 10 μM in a 1:3 dilution series with total of 9 doses. The assay plates were then incubated for 4 to 24 hours at 37° C. under […]. The assay plates were then centrifuged for 5 minutes, and the cell pellets were treated with 100 μl/well RIPA lysis buffer (Boston Bioproducts, BP-115D) with protease and phosphatase inhibitors (Roche, 05892791001 and 04906837001). To prepare MSD assay plates (MSD, L15XA), the plates were coated with the capture antibody (Santa Cruz Biotechnology, SC-5271) in PBS, at 40 μl/well. The plates were then incubated overnight at 4° C., washed 3 times with 150 μl/well TBST buffer (Cell Signaling Technology, 9997S) and blocked with 150 μl/well blocking buffer (MSD, R93BA-4). Cell lysates were then added to MSD assay plates and the plates were incubated at room temperature for 1 hour. The plates were then washed 3 times with 150 μl/well TBST buffer and 25 μl/well primary detection antibody (Cell Signaling Technology, #9312). The assay plates were then incubated at room temperature for 1 hour, washed 3 times with 150 μl/well TBST buffer, and 25 μl/well secondary detection antibody, SULFO-TAG anti-rabbit antibody (MSD, R32AB-1) were added. The assay plates were then incubated at room temperature for 1 hour, washed 3 times with 150 μl/well TB ST buffer, and 150 μl/well MSD reading buffer (MSD, R92TC-2) were added. The plates were then analyzed by an MSD reader. The data was analyzed by GraphPad Prism and the dose dependent TYK2 degradation was fit using the four-parameter inhibitor vs. response nonlinear regression.
The letter codes for TYK2 DC50 include: A (<1 nM); B (i to <10 nM); C (10 to 100 nM); D (>100 nM); and E (not tested). The letter codes for TYK2 Dmax % include: A (>90%); B (90 to >75%); C (75 to 50%); D (<50%); and E (not tested).

[1] = OCI-LY10 cells, 4 to 24 hours incubation
[2] = read-out: TYK2 MSD OCI-LY10 Rel-DC50, OCI-LY10 cells, 4 to 24 hours incubation
[3] = TYK2 degradation in OCI-LY10 cells, 4 to 24 hours incubation
[4] = read-out: TYK2 MSD OCI-LY10 Rel-DC50, TYK2 degradation in OCI-LY10 cells, 4 to 24 hours incubation
[5] = OCI-LY10 cells, incubated 4 to 24 hours
[6] = read-out: TYK2 MSD OCI-LY10 Rel-DC50, OCI-LY10 cells, incubated 4 to 24 hours

SMILES | TYK2 MSD OCI-LY10 Dmax % [3] | DC50 [4] [nM] | other results
CNc1cc(N2CCc3cc(CN4CC5(CCN(C(=O)c6ccc(Cl)c(N7CCC(=O)NC7=O)c6)CC5)C4)ccc32)nn2c(C(=O)N[C@@H]3C[C@@H]3F)cnc12 | – | – | TYK2 MSD OCI-LY10 Dmax % [1]: D (D (<50%)); DC50 [2]: > 100 nM
CO[C@@]1(c2cc(C)cc(-c3cn(C4CCN(C(=O)CCCCc5ccc6c(c5)n(C)c(=O)n6C5CCC(=O)NC5=O)CC4)c4cnc(NC(C)=O)cc34)n2)CCOC1 (stereo partly shown) | D (D (<50%)) | > 100 | –
CNc1cc(N2CCc3c(CN4CCC(N5CC6(CC(N7CCN(c8ccc9c(c8)n(C)c(=O)n9C8CCC(=O)NC8=O)CC7)C6)C5)C(F)(F)C4)cccc32)nn2c(C(=O)N[C@@H]3C[C@@H]3F)cnc12 (stereo partly shown) | B (B (90 to >75%)) | < 1 | –
CNc1cc(N2CCc3c(CN4CCC(N5CCC(CC6CCN(C(=O)c7cc(C)c(Cl)c(N8CCC(=O)NC8=O)c7)CC6)CC5)C(F)(F)C4)cccc32)nn2c(C(=O)N[C@@H]3CC[C@H]3OC)cnc12 (stereo partly shown) | A (A (>90%)) | < 1 | –
CNc1cc(N2CCc3c(CN4CCC5(CN(C6CCN(C(=O)c7cc(C)c(Cl)c(N8CCC(=O)NC8=O)c7)CC6)C5)C(F)(F)C4)cccc32)nn2c(C(=O)N[C@@H]3CC[C@H]3OC)cnc12 | – | – | TYK2 MSD OCI-LY10 Dmax % [5]: B (B (90 to >75%)); DC50 [6]: < 1 nM
CO[C@@]1(c2cc(C)cc(-c3cn(C4CCN(CCC5CCN(c6ccc(C7CCC(=O)NC7=O)c(Cl)c6)CC5)CC4)c4cnc(NC(C)=O)cc34)n2)CCOC1 (stereo partly shown) | D (D (<50%)) | 10 to 100 | –
CNc1cc(N2CCc3c(-c4ccc(CN5CC6(CCN(C(=O)c7ccc(Cl)c(N8CCC(=O)NC8=O)c7)CC6(F)F)C5)cn4)cccc32)nn2c(C(=O)N[C@H]3C[C@H](F)C3)cnc12 | – | – | TYK2 MSD OCI-LY10 Dmax % [1]: B (B (90 to >75%)); DC50 [2]: < 1 nM
CNC(=O)c1cnc(Nc2ccc(C(=O)NCCCCCCCCCCCCCCN(C(=O)[C@H]3CCCN(c4cncc5ccccc45)C3)c3ccc(=O)n(CC(=O)OC)c3)cn2)cc1Nc1cccc(-c2ncccn2)c1OC | D (D (<50%)) | > 100 | –
CNc1cc(N2CCc3c(-c4ccc(CN5CC6(CCN(C(=O)c7cc(C)c(Cl)c(N8CCC(=O)NC8=O)c7)CC6(F)F)C5)cn4)cccc32)nn2c(C(=O)N[C@@H]3CC[C@H]3OC)cnc12 | A (A (>90%)) | < 1 | –
CNc1cc(N2CCc3c(CN4CCC5(CCN(CC6CCN(C(=O)c7cc(N8CCC(=O)NC8=O)c(Cl)c(C)n7)CC6)CC5)C(F)(F)C4)cccc32)nn2c(C(=O)N[C@@H]3CC[C@H]3OC)cnc12 | B (B (90 to >75%)) | < 1 | –
CO[C@@]1(c2cc(C)cc(-c3cn(C4CCN(C(=O)c5ccc(Cl)c(N6CCC(=O)NC6=O)c5)CC4)c4cnc(NC(C)=O)cc34)n2)CCOC1 | D (D (<50%)) | > 100 | –
CNc1cc(N2CCc3c(CN4CCC(N5CCC6(CCN(C(=O)c7ccc(Cl)c(N8CCC(=O)NC8=O)c7)CC6)CC5)C(F)(F)C4)cc(F)cc32)nn2c(C(=O)N[C@@H]3CC[C@H]3OC)cnc12 (stereo partly shown) | A (A (>90%)) | < 1 | –
CNc1cc(N2CCc3c(-c4cnc(CN5CCC6(CCN(C(=O)c7cc(N8CCC(=O)NC8=O)c(C)cc7F)CC6)C(F)(F)C5)cn4)cccc32)nn2c(C(=O)N[C@@H]3CC[C@H]3OC)cnc12 | A (A (>90%)) | < 1 | –
CNc1cc(N2CCc3c(CN4CC[C@@H](N5CCC(CC6CCN(C(=O)c7cc(N8CCC(=O)NC8=O)c(Cl)c(C)n7)CC6)CC5)C(F)(F)C4)cccc32)nn2c(C(=O)N[C@@H]3CC[C@H]3OC)cnc12 | A (A (>90%)) | < 10 | –
CO[C@@]1(c2cc(C)cc(-c3cn(C4CCN(CC5CCN(c6ccc(C7CCC(=O)NC7=O)c(Cl)c6)CC5)CC4)c4cnc(NC(C)=O)cc34)n2)CCOC1 (stereo partly shown) | B (B (90 to >75%)) | < 10 | –
CNc1cc(N2CCc3c(CN4CCC5(CCN(CC6CCN(C(=O)c7cc(Cl)c(C)c(N8CCC(=O)NC8=O)c7)CC6)CC5)C(F)(F)C4)cccc32)nn2c(C(=O)N[C@@H]3CC[C@H]3OC)cnc12 | A (A (>90%)) | < 1 | –
CNc1cc(N2CCc3c2cccc3-n2cc(CN3CCC4(CCN(C(=O)c5cc(C)c(Cl)c(N6CCC(=O)NC6=O)c5)CC4)C(F)(F)C3)cn2)nn2c(C(=O)N[C@@H]3CC[C@H]3OC)cnc12 | B (B (90 to >75%)) | < 1 | –
CNc1cc(N2CCc3c([C@@H]4CCN(CC5CCN(c6ccc7c(c6)n(C)c(=O)n7C6CCC(=O)NC6=O)CC5)C4)cccc32)nn2c(C(=O)NC3CC3)cnc12 (stereo partly shown) | C (C (75 to 50%)) | < 1 | –
CNc1cc(N2CCc3c(-c4ccc(CN5CC[C@@H](N6CCN(c7ccc8c(c7)n(C)c(=O)n8C7CCC(=O)NC7=O)CC6)C(F)(F)C5)cn4)cccc32)nn2c(C(=O)N[C@@H]3C[C@@H]3F)cnc12 (stereo partly shown) | B (B (90 to >75%)) | < 10 | –
CNc1cc(N2CCc3c(CN4CC5(CCN(C6CCN(C(=O)c7cc(C)c(Cl)c(N8CCC(=O)NC8=O)c7)CC6)CC5(F)F)C4)cccc32)nn2c(C(=O)N[C@@H]3CC[C@H]3OC)cnc12 | – | – | TYK2 MSD OCI-LY10 Dmax % [5]: B (B (90 to >75%)); DC50 [6]: < 1 nM
CNc1cc(N2CCc3c(CN4CC[C@@H](CN5CCC6(CC5)CCN(C(=O)c5cc(Cl)c(C)c(N7CCC(=O)NC7=O)c5)CC6)C(F)(F)C4)cccc32)nn2c(C(=O)N[C@@H]3CC[C@H]3OC)cnc12 | A (A (>90%)) | < 1 | –
CNc1cc(N2CCc3c(-c4ccc([C@H](C)N5CC6(CCN(C(=O)c7ccc(Cl)c(N8CCC(=O)NC8=O)c7)CC6(F)F)C5)cn4)cccc32)nn2c(C(=O)N[C@@H]3CC[C@H]3OC)cnc12 | A (A (>90%)) | < 1 | –
CNc1cc(N2CCc3c(-c4ccc(CN5CC6(CCN(C(=O)c7ccc(Cl)c(N8CCC(=O)NC8=O)c7)CC6(F)F)C5)cn4)cc(F)cc32)nn2c(C(=O)N[C@@H]3C[C@@H]3F)cnc12 | – | – | TYK2 MSD OCI-LY10 Dmax % [1]: B (B (90 to >75%)); DC50 [2]: < 1 nM
CCO[C@@H]1CC[C@H]1NC(=O)c1cnc2c(NC)cc(N3CCc4c(-c5ncc(CN6CC7(CCN(C(=O)c8cc(C)c(Cl)c(N9CCC(=O)NC9=O)c8)CC7(F)F)C6)cc5F)cccc43)nn12 | B (B (90 to >75%)) | < 1 | –
CO[C@@]1(c2cc(C)cc(-c3cn(CC4CCN(C(=O)CCCCc5ccc6c(c5)n(C)c(=O)n6C5CCC(=O)NC5=O)CC4)c4cnc(NC(C)=O)cc34)n2)CCOC1 (stereo partly shown) | D (D (<50%)) | > 100 | –
CO[C@@]1(c2cc(C)cc(-c3cn(C4CCN(CC5CCN(c6ccc7c(c6)n(C)c(=O)n7C6CCC(=O)NC6=O)CC5)CC4)c4cnc(NC(C)=O)cc34)n2)CCOC1 (stereo partly shown) | C (C (75 to 50%)) | < 1 | –
CNc1cc(N2CCc3c(CN4CCC(N5CC(N6CCN(C(=O)c7ccc(Cl)c(N8CCC(=O)NC8=O)c7)CC6)C5)C(F)(F)C4)cccc32)nn2c(C(=O)N[C@@H]3C[C@@H]3F)cnc12 (stereo partly shown) | – | – | TYK2 MSD OCI-LY10 Dmax % [1]: B (B (90 to >75%)); DC50 [2]: < 1 nM
CNc1cc(N2CCc3c(-c4ccc(CN5CC6(CCN(C(=O)c7cc(N8CCC(=O)NC8=O)c(C)cn7)CC6(F)F)C5)cn4)cccc32)nn2c(C(=O)N[C@@H]3CC[C@H]3OC)cnc12 | A (A (>90%)) | < 1 | –
CNc1cc(N2CCc3c(-c4ccc(CC5CC6(CCN(C(=O)c7ccc(Cl)c(N8CCC(=O)NC8=O)c7)CC6)C5)cn4)cccc32)nn2c(C(=O)N[C@@H]3C[C@@H]3F)cnc12 | – | – | TYK2 MSD OCI-LY10 Dmax % [1]: B (B (90 to >75%)); DC50 [2]: < 10 nM
